These results are taken from ChEMBL document CHEMBL1133627, “4-Anilino-6,7-dialkoxyquinoline-3-carbonitrile inhibitors of epidermal growth factor receptor kinase and their bioisosteric relationship to the 4-anilino-6,7-dialkoxyquinazoline inhibitors” (J Med Chem, 2000).

By UniProt entry, the sequences of proteins in these tests, tags left out. Where a name states a change or a piece, a line headed by the entry shows the natural chain unless it says otherwise.
UniProt P04626: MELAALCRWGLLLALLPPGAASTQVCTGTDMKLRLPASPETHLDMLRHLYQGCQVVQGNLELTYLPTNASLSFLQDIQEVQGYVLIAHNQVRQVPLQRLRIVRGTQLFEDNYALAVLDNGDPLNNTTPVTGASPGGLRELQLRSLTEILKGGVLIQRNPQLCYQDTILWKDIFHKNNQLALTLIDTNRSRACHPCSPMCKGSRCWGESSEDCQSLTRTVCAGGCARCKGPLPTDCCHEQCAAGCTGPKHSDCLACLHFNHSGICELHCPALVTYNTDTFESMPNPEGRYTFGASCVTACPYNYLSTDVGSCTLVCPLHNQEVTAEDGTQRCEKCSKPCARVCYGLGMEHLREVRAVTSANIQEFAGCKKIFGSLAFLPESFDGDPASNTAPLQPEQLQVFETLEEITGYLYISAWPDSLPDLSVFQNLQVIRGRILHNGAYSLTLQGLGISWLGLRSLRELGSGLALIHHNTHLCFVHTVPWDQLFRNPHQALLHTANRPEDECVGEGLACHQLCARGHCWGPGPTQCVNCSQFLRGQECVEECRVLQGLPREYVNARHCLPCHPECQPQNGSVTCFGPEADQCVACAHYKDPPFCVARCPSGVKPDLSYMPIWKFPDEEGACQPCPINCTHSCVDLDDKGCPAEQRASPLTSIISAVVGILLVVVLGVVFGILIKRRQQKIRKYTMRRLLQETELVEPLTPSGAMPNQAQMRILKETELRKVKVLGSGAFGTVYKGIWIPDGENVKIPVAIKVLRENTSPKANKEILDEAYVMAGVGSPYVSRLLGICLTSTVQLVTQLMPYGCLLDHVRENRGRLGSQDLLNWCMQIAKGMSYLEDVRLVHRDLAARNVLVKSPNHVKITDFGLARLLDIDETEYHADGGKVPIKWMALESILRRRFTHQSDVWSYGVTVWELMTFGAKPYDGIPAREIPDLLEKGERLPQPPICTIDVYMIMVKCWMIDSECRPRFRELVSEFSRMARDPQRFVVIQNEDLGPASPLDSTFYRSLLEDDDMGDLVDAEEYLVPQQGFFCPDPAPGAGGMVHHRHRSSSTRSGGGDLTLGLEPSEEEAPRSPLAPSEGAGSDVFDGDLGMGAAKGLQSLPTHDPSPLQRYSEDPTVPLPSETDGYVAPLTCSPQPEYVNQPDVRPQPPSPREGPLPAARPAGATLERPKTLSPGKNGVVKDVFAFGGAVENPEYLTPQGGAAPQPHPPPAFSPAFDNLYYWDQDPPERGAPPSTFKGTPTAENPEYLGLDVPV
UniProt P00533: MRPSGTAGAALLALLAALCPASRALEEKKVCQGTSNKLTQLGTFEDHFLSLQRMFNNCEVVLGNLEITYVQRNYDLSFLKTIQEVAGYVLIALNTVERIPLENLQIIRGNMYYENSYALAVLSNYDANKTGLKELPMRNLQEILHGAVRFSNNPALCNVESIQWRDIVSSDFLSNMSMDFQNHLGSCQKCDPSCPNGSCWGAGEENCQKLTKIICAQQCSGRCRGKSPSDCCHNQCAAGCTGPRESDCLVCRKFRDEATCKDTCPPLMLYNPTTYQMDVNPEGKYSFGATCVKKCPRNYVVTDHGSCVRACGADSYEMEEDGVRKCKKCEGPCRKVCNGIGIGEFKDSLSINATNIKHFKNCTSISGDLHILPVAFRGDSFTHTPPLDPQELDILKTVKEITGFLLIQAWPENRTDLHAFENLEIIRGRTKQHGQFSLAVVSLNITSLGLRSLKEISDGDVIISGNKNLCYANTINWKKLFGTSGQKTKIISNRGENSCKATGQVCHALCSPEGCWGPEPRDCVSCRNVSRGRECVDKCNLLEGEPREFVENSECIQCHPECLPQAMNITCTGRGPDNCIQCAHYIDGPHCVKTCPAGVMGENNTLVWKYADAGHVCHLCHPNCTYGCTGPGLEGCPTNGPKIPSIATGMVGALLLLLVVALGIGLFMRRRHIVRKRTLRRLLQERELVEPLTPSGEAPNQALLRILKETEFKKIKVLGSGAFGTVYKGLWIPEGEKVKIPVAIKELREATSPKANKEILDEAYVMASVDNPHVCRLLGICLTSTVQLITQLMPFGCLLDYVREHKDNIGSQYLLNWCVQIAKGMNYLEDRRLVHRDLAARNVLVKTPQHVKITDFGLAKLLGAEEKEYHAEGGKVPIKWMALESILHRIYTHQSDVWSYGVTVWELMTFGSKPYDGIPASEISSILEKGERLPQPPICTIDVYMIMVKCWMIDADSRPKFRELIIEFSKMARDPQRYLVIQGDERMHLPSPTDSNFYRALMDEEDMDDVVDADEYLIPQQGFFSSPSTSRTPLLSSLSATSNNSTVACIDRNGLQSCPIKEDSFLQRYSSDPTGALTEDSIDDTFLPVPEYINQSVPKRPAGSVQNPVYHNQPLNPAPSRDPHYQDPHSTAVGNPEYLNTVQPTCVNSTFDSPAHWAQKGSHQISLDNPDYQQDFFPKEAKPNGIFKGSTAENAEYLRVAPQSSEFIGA

One experiment concerns A-431. Description: Concentration needed to inhibit 50% growth of the human A431 (epidermoid carcinoma) cell lines. It counts as functional, cell-based.
As a reminder, the IC50 is the concentration that gives 50% inhibition. Higher therefore signals a need for much substance. The compound `COc1cc2ncc(C#N)c(Nc3ccc(F)c(Cl)c3)c2cc1OC` gave an IC50 of 0.7 µM.

Take `COc1cc2ncc(C#N)c(Nc3ccccc3C(C)C)c2cc1OC`: half-maximal inhibition (IC50) required 13.2 µM. Against the preceding compound, the IC50 is about 19-fold higher.

On to `COc1cc2ncc(C(N)=O)c(Nc3cccc(Br)c3)c2cc1OC`, for which the IC50 came out at 4.65 µM.

For `COc1cc2ncc(C#N)c(Nc3cccc(N(C)C)c3)c2cc1OC.Cl`, the IC50 was found to be 0.65 µM. Compared with the last compound, the IC50 is about 7.2-fold lower.

In the case of `COc1cc2ncc(C#N)c(Nc3ccc(F)c(C(F)(F)F)c3)c2cc1OC.Cl`, the IC50 turned out to be 7.72 µM. This IC50 is about 12-fold higher than that of the compound before.

In the case of `COc1cc2ncc(C#N)c(Nc3ccc(Br)cc3)c2cc1OC`, the IC50 was found to be 0.76 µM.

On to `COc1cc2ncc(C#N)c(Nc3cccc(C(C)=O)c3)c2cc1OC`, for which the IC50 came out at 7.37 µM.

The target in another experiment is Epidermal growth factor receptor and ErbB2 (HER1 and HER2) (Homo sapiens, UniProt P04626+P00533). The experiment is described as follows: Concentration needed to inhibit the autophosphorylation of the cytoplasmic domain of Epidermal growth factor receptor using DELFIA/time-resolved fluorimetry. It counts as protein assay.
Consider `COc1cc2ncc(C#N)c(Nc3ccc(F)c(Cl)c3)c2cc1OC`, for which the IC50 worked out at 0.54 µM.

`COc1cc2ncc(C#N)c(Nc3cccc(C(F)(F)F)c3)c2cc1OC` returned an IC50 of 1.45 µM.

In the case of `COc1cc2ncc(C#N)c(Nc3cccc([N+](=O)[O-])c3)c2cc1OC`, the IC50 is 0.87 µM. Against the preceding compound, the IC50 is about 1.7-fold lower.

Regarding `COc1cc2ncc(C#N)c(Nc3ccccc3C(C)C)c2cc1OC`, the IC50 came to 0.36 µM.

`COc1cc2ncc(C(N)=O)c(Nc3cccc(Br)c3)c2cc1OC` returned an IC50 of 15.17 µM. Compared with the last compound, the IC50 is about 42-fold higher.

Consider `COc1cc2ncc(C#N)c(Nc3cccc(N(C)C)c3)c2cc1OC.Cl`, for which the IC50 was 0.85 µM.

With `COc1cc2ncc(C#N)c(Nc3ccc(F)c(C(F)(F)F)c3)c2cc1OC.Cl`, the IC50 is 0.16 µM. This IC50 lies about 5.3-fold lower than the previous one.

In turn, `COc1cc2ncc(C#N)c(Nc3ccc(Br)cc3)c2cc1OC` returned an IC50 of 6.65 µM.

With `COc1cc2ncc(C#N)c(Nc3cccc(C(C)=O)c3)c2cc1OC`, the IC50 came to 7.38 µM.

`COc1cc2ncc(C#N)c(Nc3cc(Cl)ccc3O)c2cc1OC` displayed an IC50 of 17.02 µM.

`COc1ccc(Nc2c(C#N)cnc3cc(OC)c(OC)cc23)cc1OC`: the IC50 is 50.49 µM. Against the preceding compound, the IC50 is about 3-fold higher.

The test system of the next experiment is SK-BR-3. The experiment is described as follows: Concentration needed to inhibit 50% growth of human SKBr3 (breast carcinoma) cell lines. The experiment is classed as functional, cell-based.
For `COc1cc2ncc(C#N)c(Nc3ccc(F)c(Cl)c3)c2cc1OC`, inhibition was half-maximal at 0.47 µM (IC50). In other words, the sub-micromolar range.

In turn, `COc1cc2ncc(C#N)c(Nc3ccccc3C(C)C)c2cc1OC` registered an IC50 of 16.1 µM. Against the preceding compound, the IC50 is about 34-fold higher.

Take `COc1cc2ncc(C(N)=O)c(Nc3cccc(Br)c3)c2cc1OC`: 7.78 µM corresponded to half-maximal inhibition (IC50).

Regarding `COc1cc2ncc(C#N)c(Nc3cccc(N(C)C)c3)c2cc1OC.Cl`, the IC50 worked out at 0.36 µM.

`COc1cc2ncc(C#N)c(Nc3ccc(F)c(C(F)(F)F)c3)c2cc1OC.Cl` registered an IC50 of 0.52 µM.

Consider `COc1cc2ncc(C#N)c(Nc3ccc(Br)cc3)c2cc1OC`, for which the IC50 was found to be 1.47 µM.

`COc1cc2ncc(C#N)c(Nc3cccc(C(C)=O)c3)c2cc1OC`: the IC50 amounted to 5.12 µM.

The test system of another experiment is SW-620. Description: Concentration needed to inhibit 50% growth of human SW620 (colon carcinoma) cell lines. The experiment is classed as functional, cell-based.
Consider `COc1cc2ncc(C#N)c(Nc3ccc(F)c(Cl)c3)c2cc1OC`, for which the IC50 worked out at 2.3 µM.

Take `COc1cc2ncc(C#N)c(Nc3ccccc3C(C)C)c2cc1OC`: the IC50 turned out to be 4.98 µM.

Consider `COc1cc2ncc(C(N)=O)c(Nc3cccc(Br)c3)c2cc1OC`, for which the IC50 stood at 9.87 µM.

`COc1cc2ncc(C#N)c(Nc3cccc(N(C)C)c3)c2cc1OC.Cl` returned an IC50 of 0.99 µM. Against the preceding compound, the IC50 is about 10-fold lower.

As for `COc1cc2ncc(C#N)c(Nc3ccc(F)c(C(F)(F)F)c3)c2cc1OC.Cl`, the IC50 amounted to 29.5 µM.

In the case of `COc1cc2ncc(C#N)c(Nc3ccc(Br)cc3)c2cc1OC`, the IC50 amounted to 3.76 µM. Compared with the last compound, the IC50 is about 7.8-fold lower.

On to `COc1cc2ncc(C#N)c(Nc3cccc(C(C)=O)c3)c2cc1OC`, for which inhibition was half-maximal at 6.3 µM (IC50).
